Results published in patent US20260384438A1, “PYRROLOPYRIMIDINE CARBOXAMIDES” (published 2026).

Amino acid sequences for entries named in this document (tags omitted).
UniProt Q6P5Z2, whole entry: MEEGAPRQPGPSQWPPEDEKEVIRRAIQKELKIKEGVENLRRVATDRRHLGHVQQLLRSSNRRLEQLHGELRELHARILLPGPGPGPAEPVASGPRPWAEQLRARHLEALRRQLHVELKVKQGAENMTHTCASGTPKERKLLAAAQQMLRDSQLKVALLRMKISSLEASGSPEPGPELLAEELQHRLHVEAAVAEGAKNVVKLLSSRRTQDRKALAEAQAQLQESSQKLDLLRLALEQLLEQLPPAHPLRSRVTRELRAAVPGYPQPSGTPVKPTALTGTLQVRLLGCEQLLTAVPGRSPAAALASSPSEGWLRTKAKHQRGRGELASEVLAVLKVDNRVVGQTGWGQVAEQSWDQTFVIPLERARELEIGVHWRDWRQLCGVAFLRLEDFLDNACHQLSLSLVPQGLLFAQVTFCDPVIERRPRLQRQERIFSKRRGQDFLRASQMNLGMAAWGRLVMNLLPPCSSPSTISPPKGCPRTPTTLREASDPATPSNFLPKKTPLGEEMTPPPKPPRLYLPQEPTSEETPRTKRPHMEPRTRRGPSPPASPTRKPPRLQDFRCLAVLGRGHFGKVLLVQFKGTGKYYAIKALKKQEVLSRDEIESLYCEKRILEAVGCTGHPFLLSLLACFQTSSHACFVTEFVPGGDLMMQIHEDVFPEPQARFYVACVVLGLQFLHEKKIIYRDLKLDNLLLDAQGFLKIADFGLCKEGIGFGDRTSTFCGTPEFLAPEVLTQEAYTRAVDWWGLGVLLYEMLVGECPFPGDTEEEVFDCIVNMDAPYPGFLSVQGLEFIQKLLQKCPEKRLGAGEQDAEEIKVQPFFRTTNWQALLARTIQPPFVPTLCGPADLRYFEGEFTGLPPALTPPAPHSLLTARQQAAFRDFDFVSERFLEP
UniProt Q14680, whole entry: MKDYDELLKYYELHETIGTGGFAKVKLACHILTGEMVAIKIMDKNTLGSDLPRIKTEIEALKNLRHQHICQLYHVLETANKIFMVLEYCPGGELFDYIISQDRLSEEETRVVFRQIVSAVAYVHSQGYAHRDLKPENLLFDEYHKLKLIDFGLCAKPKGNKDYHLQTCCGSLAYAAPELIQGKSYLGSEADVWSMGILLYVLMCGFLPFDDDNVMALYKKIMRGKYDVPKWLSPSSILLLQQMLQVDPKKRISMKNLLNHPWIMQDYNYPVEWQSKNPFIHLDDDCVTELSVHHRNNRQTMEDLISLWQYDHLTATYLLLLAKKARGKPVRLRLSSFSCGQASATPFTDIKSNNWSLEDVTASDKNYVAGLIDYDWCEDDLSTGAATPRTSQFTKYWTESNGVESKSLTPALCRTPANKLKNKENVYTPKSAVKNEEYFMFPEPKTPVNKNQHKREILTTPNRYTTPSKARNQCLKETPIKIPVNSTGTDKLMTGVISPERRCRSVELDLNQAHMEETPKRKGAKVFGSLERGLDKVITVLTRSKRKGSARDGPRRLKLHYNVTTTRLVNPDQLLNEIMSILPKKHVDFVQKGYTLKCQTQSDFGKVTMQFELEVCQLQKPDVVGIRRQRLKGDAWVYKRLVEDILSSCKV
UniProt P42684, whole entry: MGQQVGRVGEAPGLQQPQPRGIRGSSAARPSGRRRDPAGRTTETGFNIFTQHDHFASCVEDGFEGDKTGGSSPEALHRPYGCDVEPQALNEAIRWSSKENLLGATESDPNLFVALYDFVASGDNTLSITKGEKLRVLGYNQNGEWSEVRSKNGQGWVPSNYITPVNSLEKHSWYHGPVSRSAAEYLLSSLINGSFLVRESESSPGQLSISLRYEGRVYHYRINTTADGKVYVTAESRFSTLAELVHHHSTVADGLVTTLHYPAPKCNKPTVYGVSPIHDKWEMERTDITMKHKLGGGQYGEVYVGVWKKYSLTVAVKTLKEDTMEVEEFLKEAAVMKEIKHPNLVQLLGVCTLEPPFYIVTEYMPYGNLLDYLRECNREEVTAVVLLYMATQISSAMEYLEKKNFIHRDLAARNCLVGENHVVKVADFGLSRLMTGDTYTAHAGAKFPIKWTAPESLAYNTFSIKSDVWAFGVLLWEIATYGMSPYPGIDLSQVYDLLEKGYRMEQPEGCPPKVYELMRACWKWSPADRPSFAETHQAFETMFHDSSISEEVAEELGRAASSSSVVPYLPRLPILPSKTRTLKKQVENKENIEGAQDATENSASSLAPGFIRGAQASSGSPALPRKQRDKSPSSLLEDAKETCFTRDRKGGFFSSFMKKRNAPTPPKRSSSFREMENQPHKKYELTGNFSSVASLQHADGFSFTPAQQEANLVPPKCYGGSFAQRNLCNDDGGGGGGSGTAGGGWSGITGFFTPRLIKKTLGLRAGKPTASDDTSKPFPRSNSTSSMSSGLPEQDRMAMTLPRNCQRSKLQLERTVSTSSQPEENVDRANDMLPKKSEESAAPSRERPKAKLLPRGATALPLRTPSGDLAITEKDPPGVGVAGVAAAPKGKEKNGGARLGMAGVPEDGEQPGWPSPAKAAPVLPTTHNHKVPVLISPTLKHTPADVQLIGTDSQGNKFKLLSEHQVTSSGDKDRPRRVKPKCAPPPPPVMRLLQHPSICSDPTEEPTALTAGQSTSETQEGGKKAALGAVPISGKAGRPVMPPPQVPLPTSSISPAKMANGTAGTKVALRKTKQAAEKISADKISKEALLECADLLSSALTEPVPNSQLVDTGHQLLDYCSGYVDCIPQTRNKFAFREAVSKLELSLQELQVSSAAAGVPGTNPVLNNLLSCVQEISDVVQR
UniProt Q7L7X3, whole entry: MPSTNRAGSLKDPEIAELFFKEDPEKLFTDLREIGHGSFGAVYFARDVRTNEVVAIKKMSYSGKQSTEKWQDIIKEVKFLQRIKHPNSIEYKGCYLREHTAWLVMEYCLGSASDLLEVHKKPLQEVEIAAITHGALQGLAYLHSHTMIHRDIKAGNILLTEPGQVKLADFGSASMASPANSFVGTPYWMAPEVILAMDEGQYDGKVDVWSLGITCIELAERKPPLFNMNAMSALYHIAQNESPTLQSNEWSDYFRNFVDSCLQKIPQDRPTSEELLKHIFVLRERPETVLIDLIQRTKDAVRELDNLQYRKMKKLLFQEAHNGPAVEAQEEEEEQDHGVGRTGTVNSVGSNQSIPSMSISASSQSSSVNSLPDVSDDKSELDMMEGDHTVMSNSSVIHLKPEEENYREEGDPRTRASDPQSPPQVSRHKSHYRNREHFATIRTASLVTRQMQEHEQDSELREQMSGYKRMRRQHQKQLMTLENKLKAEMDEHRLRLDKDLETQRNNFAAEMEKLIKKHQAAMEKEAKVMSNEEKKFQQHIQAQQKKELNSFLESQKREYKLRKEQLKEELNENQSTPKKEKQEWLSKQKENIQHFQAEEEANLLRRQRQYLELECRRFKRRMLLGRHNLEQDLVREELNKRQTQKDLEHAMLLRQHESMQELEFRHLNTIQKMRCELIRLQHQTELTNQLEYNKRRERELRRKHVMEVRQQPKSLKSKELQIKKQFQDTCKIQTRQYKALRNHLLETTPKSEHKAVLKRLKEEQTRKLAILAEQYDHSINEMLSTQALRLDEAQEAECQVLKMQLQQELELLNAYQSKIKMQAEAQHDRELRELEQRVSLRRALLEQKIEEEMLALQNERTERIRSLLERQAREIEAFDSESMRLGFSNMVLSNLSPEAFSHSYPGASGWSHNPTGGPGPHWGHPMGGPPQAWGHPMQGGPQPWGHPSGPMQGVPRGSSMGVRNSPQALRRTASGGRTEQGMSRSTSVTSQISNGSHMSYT
UniProt Q13164, whole entry: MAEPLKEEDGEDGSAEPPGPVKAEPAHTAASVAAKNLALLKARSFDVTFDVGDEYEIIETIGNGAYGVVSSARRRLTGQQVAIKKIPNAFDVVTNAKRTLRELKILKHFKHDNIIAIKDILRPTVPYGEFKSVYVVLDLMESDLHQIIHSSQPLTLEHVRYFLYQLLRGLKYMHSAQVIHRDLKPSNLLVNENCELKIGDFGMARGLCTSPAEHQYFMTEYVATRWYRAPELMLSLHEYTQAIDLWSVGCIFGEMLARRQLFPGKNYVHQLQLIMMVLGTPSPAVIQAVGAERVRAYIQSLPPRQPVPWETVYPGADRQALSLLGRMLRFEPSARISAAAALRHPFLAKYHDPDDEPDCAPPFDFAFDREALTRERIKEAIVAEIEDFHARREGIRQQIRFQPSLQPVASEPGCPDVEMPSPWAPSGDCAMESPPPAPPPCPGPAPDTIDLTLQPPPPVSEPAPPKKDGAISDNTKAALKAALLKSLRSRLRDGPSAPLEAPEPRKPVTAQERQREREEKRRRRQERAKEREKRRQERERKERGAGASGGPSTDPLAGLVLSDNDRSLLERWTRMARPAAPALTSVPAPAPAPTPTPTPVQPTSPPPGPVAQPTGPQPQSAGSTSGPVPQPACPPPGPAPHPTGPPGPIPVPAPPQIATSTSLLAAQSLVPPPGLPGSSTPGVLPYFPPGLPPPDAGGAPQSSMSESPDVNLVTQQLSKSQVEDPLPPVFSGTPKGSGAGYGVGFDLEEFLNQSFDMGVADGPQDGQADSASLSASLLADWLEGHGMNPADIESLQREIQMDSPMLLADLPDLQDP
UniProt O43353, whole entry: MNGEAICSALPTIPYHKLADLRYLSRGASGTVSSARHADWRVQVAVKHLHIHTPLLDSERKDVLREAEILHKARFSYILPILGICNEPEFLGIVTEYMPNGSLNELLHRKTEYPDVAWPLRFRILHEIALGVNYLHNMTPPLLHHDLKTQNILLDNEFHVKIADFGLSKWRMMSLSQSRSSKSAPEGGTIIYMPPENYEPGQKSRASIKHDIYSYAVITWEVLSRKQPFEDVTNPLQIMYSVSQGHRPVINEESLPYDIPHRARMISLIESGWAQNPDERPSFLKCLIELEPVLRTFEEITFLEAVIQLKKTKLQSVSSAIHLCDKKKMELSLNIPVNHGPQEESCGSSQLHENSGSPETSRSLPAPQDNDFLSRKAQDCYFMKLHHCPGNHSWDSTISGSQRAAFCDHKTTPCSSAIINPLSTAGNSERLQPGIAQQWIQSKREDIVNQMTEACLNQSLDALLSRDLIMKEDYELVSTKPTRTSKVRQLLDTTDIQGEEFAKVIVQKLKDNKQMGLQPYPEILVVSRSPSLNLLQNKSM
UniProt Q9BUB5, whole entry: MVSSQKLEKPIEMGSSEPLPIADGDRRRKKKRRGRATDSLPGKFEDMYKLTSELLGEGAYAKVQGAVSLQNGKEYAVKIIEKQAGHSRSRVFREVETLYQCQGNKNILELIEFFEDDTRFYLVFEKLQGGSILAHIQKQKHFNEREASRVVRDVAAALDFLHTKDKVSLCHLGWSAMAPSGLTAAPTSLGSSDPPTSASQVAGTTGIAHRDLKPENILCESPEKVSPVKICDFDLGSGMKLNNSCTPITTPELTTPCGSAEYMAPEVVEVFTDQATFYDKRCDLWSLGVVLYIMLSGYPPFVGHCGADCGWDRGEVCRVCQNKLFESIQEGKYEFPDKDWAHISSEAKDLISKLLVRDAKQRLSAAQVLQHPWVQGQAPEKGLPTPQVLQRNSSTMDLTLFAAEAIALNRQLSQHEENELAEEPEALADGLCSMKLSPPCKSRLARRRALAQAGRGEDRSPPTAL
UniProt Q6PHR2, whole entry: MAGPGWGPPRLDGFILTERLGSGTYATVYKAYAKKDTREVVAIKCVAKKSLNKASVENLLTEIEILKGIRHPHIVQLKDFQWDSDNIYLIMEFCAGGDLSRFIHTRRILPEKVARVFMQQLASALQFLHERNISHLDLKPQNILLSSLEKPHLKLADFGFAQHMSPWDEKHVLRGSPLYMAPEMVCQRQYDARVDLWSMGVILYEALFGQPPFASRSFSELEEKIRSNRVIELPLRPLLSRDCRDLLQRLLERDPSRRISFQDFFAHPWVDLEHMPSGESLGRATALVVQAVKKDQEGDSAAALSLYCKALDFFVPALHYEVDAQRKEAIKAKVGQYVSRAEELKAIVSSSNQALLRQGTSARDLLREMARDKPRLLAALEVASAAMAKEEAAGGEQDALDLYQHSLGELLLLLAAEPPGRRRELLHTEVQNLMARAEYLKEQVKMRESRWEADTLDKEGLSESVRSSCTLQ
UniProt Q9UIK4, whole entry: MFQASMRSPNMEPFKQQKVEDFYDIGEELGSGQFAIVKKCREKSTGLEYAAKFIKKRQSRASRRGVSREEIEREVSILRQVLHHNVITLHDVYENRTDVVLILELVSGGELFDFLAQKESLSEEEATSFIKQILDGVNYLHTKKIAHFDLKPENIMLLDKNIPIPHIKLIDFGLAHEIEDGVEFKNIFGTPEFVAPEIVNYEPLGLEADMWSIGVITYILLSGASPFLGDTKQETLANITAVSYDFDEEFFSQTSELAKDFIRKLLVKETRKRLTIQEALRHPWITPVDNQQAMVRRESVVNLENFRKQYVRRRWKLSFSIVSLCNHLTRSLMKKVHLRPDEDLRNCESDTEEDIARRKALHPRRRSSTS

How the values were obtained:
Assay in all cases: KAT chemical proteomics
[1] = molecular target: MAPK15 (Homo sapiens, UniProt Q8TD08)
[2] = molecular target: LCK (Homo sapiens, UniProt P06239)
[3] = molecular target: PKN3 (Homo sapiens, UniProt Q6P5Z2)
[4] = molecular target: MELK (Homo sapiens, UniProt Q14680)
[5] = system: CCNK
[6] = molecular target: ABL2 (Homo sapiens, UniProt P42684)
[7] = molecular target: MAP3K6 (Homo sapiens, UniProt O95382)
[8] = molecular target: PRKAA1 (Homo sapiens, UniProt Q13131)
[9] = molecular target: PKMYT1 (Homo sapiens, UniProt Q99640)
[10] = molecular target: TNK1 (Homo sapiens, UniProt Q13470)
[11] = molecular target: TAOK1 (Homo sapiens, UniProt Q7L7X3)
[12] = molecular target: MAPK7 (Homo sapiens, UniProt Q13164)
[13] = molecular target: GSK3B (Homo sapiens, UniProt P49841)
[14] = molecular target: RIPK2 (Homo sapiens, UniProt O43353)
[15] = molecular target: CSNK2A2 (Homo sapiens, UniProt P19784)
[16] = molecular target: MAPK8 (Homo sapiens, UniProt P45983)
[17] = molecular target: HIPK2 (Homo sapiens, UniProt Q9H2X6)
[18] = molecular target: BTK (Homo sapiens, UniProt Q06187)
[19] = molecular target: INSR (Homo sapiens, UniProt P06213)
[20] = molecular target: MKNK1 (Homo sapiens, UniProt Q9BUB5)
[21] = molecular target: SLK (Homo sapiens, UniProt Q9H2G2)
[22] = system: CCNB1
[23] = molecular target: ULK3 (Homo sapiens, UniProt Q6PHR2)
[24] = molecular target: STK38L (Homo sapiens, UniProt Q9Y2H1)
[25] = system: PIK3R4
[26] = molecular target: MAP2K1 (Homo sapiens, UniProt Q02750)
[27] = molecular target: FN3K (Homo sapiens, UniProt Q9H479)
[28] = molecular target: MAP4K3 (Homo sapiens, UniProt Q8IVH8)
[29] = molecular target: ADPGK (Homo sapiens, UniProt Q9BRR6)
[30] = molecular target: PRKCZ (Homo sapiens, UniProt Q05513)
[31] = system: TRIM27
[32] = molecular target: ULK4 (Homo sapiens, UniProt Q96C45)
[33] = molecular target: BMPR2 (Homo sapiens, UniProt Q13873)
[34] = molecular target: CASK (Homo sapiens, UniProt O14936)
[35] = system: BCR
[36] = molecular target: HIPK3 (Homo sapiens, UniProt Q9H422)
[37] = molecular target: MERTK (Homo sapiens, UniProt Q12866)
[38] = molecular target: DAPK2 (Homo sapiens, UniProt Q9UIK4)
[39] = molecular target: PRKCI (Homo sapiens, UniProt P41743)
[40] = molecular target: ULK1 (Homo sapiens, UniProt O75385)
[41] = molecular target: IKBKB (Homo sapiens, UniProt O14920)

SMILES: Cc1nc(C(F)(F)F)c2c(C(N)=O)c(N)n(-c3c(C)ccc(O)c3C)c2n1 (single isomer, unassigned)
- RB50 [1]: >50 µM
- RB50 [2]: >50 µM
- RB50 [3]: 163 nM
- RB50 [4]: >50 µM
- RB50 [5]: 4.47 µM
- RB50 [6]: 132 nM
- RB50 [7]: >50 µM
- RB50 [8]: >50 µM
- RB50 [9]: 832 pM
- RB50 [10]: >50 µM
- RB50 [11]: >50 µM
- RB50 [12]: >50 µM
- RB50 [13]: >50 µM
- RB50 [14]: >50 µM
- RB50 [15]: >50 µM
- RB50 [16]: >50 µM
- RB50 [17]: >50 µM
- RB50 [18]: >50 µM
- RB50 [19]: >50 µM
- RB50 [20]: >50 µM
- RB50 [21]: >50 µM
- RB50 [22]: >50 µM
- RB50 [23]: >50 µM
- RB50 [24]: >50 µM
- RB50 [25]: >50 µM
- RB50 [26]: >50 µM
- RB50 [27]: >50 µM
- RB50 [28]: >50 µM
- RB50 [29]: >50 µM
- RB50 [30]: >50 µM
- RB50 [31]: >50 µM
- RB50 [32]: >50 µM
- RB50 [33]: >50 µM
- RB50 [34]: >50 µM
- RB50 [35]: 119 nM
- RB50 [36]: >50 µM
- RB50 [37]: >50 µM
- RB50 [38]: >50 µM
- RB50 [39]: >50 µM
- RB50 [40]: >50 µM
- RB50 [41]: >50 µM
